High-throughput results as filed in PubChem.
HCMV UL50-53 inh: disrupts HCMV UL50-UL53 complex binding; HTRF UL50-UL53 interaction, normalized percent inhibition; inhibition, % (concentration not given with the values); 190,000 compounds, 0.15% hits; in the data active means inhibition above about 27%, passing the limit was not always enough
GIV-Gai inh: inhibitors of GIV GBA-motif binding to rat Galpha-i3. 210,000 tested, 0.42% active. percent of control (FP), % (concentration not given with the values). AID 1224905. Galpha-i3/FITC-GIV peptide fluorescence polarization, 90 min; active compounds read low; scaled: aluminum fluoride 0%, vehicle 100%;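 active = replicate mean at 85% of control or lower, very high polarization wells dropped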;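 note: wells of about 15 µL received 100 nL stock; the first replicate is given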
GIV-Gai FP conf: GIV-Galpha-i3 inhibition, FP confirmation. shares compounds with GIV-Gai inh. FITC-GIV peptide binding to Galphai3, fluorescence polarization; hits give low values. fluorescence polarization, mP at 100 µM. 580 compounds, 38% hits. AID 1259350;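 active means inhibition score of 15 or more, meaning 100 minus mean polarization as percent of control over three replicates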;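 further: lower mP means peptide displaced from Galphai3 so more inhibition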
GIV Gai AS conf: confirmation of inhibitors of GIV binding to human Galpha-i3; shares compounds with GIV-Gai inh; AlphaScreen Galphai3-GIV binding, purified proteins, 90 min; hits give low values; AlphaScreen counts at 100 µM; 580 compounds, 39% hits;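 active means inhibition score at or above a set limit, where the score is 100 minus the three-replicate mean percent of control signal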
Starred values were filed as active, the others as inactive. Shown is part of a subset that was picked to be rich in hits.

Results for COC(=O)Cn1cc(C=C2C(=O)N(C)C(=O)N(C)C2=O)c2ccccc21 ?
HCMV UL50-53 inh: -15; GIV-Gai inh: -2.1*

What do the screens show for `CCN1C(=O)NC(=O)/C(=C\c2cn(CC(=O)O)c3ccccc23)C1=O`?
HCMV UL50-53 inh: -39; GIV-Gai inh: 110

Results for NNc1ccn(C2OC(CO)C(O)C2O)c(=O)n1 (stereo not drawn) ?
HCMV UL50-53 inh: -8

Results for CC1(C)C(C(=O)N2CCC(n3cc(C4CC4)nn3)CC2)C1(C)C ?
HCMV UL50-53 inh: -9

Results for O=C(NC(COc1ccc2[nH]c(=O)[nH]c2c1)c1ccccc1)c1cccn(Cc2ccc(F)c(F)c2)c1=O (stereo not drawn) ?
HCMV UL50-53 inh: 13

What do the screens show for `CN1CCc2c(C#N)c(N)n(N)c(=S)c2C1`?
HCMV UL50-53 inh: -67; GIV-Gai inh: -103*

How did CN1CCc2[nH]c(=S)c(C#N)c(-c3ccccc3)c2C1 do in these assays?
HCMV UL50-53 inh: -30

Results for CC(=Cc1csc(C)n1)C1CC2O[C@]2(C)CCCC(C)C(O)C(C)C(=O)C(C)(C)C(O)CC(=O)O1 (stereo partly drawn) ?
HCMV UL50-53 inh: -1

Results for CCOc1ccc(N2C(=O)NC(=O)/C(=C/c3cn(CC(=O)Nc4ccccc4)c4ccccc34)C2=O)cc1 ?
HCMV UL50-53 inh: 1; GIV-Gai inh: -4.9*

How did COc1ccc(N2C(=O)NC(=O)/C(=C\c3cn(CC(=O)Nc4ccccc4)c4ccccc34)C2=O)cc1 do in these assays?
GIV-Gai inh: 89

What do the screens show for `Cc1ccc(C=C(C#N)C#N)o1`?
HCMV UL50-53 inh: -65; GIV-Gai inh: 104

Results for N#CC(C#N)=Cc1ccc(-c2ccccc2)o1 ?
HCMV UL50-53 inh: -19; GIV-Gai inh: -0.4*

How did CN1C(=O)[C@]23CC4=CC=C[C@H](O)[C@H]4N2C(=O)[C@@]1(CO)SS3 do in these assays?
HCMV UL50-53 inh: 55*

What do the screens show for `O=C(Cc1ccccc1)N1CCN(CCN=Cc2c(-c3ccccc3)[nH]n(-c3ccc([N+](=O)[O-])cc3)c2=O)CC1`?
GIV-Gai inh: 100

What do the screens show for `Cc1[nH]nc2c1C(c1ccc(F)cc1F)SCC(=O)N2` (stereo not drawn)?
HCMV UL50-53 inh: -25; GIV-Gai inh: 98

Grouped by structure, the compounds so far with fluorine
Results for O=C(NC(COc1ccc2[nH]c(=O)[nH]c2c1)c1ccccc1)c1cccn(Cc2ccc(F)c(F)c2)c1=O (stereo not drawn) ?
HCMV UL50-53 inh: 13

What do the screens show for `Cc1[nH]nc2c1C(c1ccc(F)cc1F)SCC(=O)N2` (stereo not drawn)?
HCMV UL50-53 inh: -25; GIV-Gai inh: 98

Returning to the listing, repeating the 2 entries before the break.
What do the screens show for `O=C(Cc1ccccc1)N1CCN(CCN=Cc2c(-c3ccccc3)[nH]n(-c3ccc([N+](=O)[O-])cc3)c2=O)CC1`?
GIV-Gai inh: 100

What do the screens show for `Cc1[nH]nc2c1C(c1ccc(F)cc1F)SCC(=O)N2` (stereo not drawn)?
HCMV UL50-53 inh: -25; GIV-Gai inh: 98

What do the screens show for `C1=C(c2c[nH]c3ccccc23)CCNC1`?
HCMV UL50-53 inh: -26; GIV-Gai inh: -23*

How did O=c1ccc2[nH]cc(C3=CCNCC3)c2[nH]1 do in these assays?
HCMV UL50-53 inh: 5; GIV-Gai inh: 107

What do the screens show for `COc1ccc2c(c1)C1(CCN(S(=O)(=O)c3ccc(OC)c(OC)c3)C1)C(=O)N2C` (stereo not drawn)?
GIV-Gai inh: 104

Results for CCOC(=O)CSCCOc1ccc(C=C2C(=O)NC(=O)NC2=O)cc1OC ?
HCMV UL50-53 inh: 60*; GIV-Gai inh: 98

How did COc1cc(C=C2C(=O)NC(=O)NC2=O)ccc1OS(=O)(=O)c1ccccc1 do in these assays?
HCMV UL50-53 inh: 60*; GIV-Gai inh: 89

What do the screens show for `COc1ccc(C=C2C(=O)NC(=O)NC2=O)cc1`?
GIV-Gai inh: 97

How did CCOC(=O)COc1ccc(/C=C2\C(=O)NC(=S)N(c3ccc(OC)cc3)C2=O)cc1OC do in these assays?
HCMV UL50-53 inh: -32; GIV-Gai inh: 102

Results for CN(C)/C=C(\C=[N+](C)C)c1[nH]ncc1N ?
HCMV UL50-53 inh: -11

How did C[C@]12CCC(O)C[C@@H]1CC[C@@H]1[C@H]2CC[C@]2(C)C(=O)CC[C@@H]12 (stereo partly drawn) do in these assays?
HCMV UL50-53 inh: -10

How did O=C1NC(=O)N(Cc2ccccc2)C(=O)/C1=C/c1ccc(O)cc1 do in these assays?
HCMV UL50-53 inh: 31; GIV-Gai inh: 111

Results for O=C1NC(=O)N(Cc2ccccc2)C(=O)/C1=C\c1ccccc1 ?
GIV-Gai inh: 15*; GIV-Gai FP conf: 31*; GIV Gai AS conf: 14998*

How did Cn1c(=O)c2ncnnc2n(C)c1=O do in these assays?
HCMV UL50-53 inh: 12; GIV-Gai inh: 77*; GIV-Gai FP conf: 58*; GIV Gai AS conf: 35976

Results for CN1CCC(N(C)c2nc(-c3cccs3)nc3sc4c(c23)CCC4)CC1 ?
HCMV UL50-53 inh: -26

How did CN1C(=O)NC(=O)/C(=C/c2ccco2)C1=O do in these assays?
HCMV UL50-53 inh: -2; GIV-Gai inh: 100

How did O=C1NC(=S)NC(=O)C1=Cc1ccco1 do in these assays?
HCMV UL50-53 inh: 2; GIV-Gai inh: 73*; GIV-Gai FP conf: 57*; GIV Gai AS conf: 5695*

Results for CCCCn1c(=O)c(C(=O)Nc2nc3ccc(C)cc3s2)c(O)c2ccccc21 ?
GIV-Gai inh: 107

Results for CC1(C)COP(=S)(C(Nc2ccc([N+](=O)[O-])cc2)c2ccc(O)cc2)OC1 (stereo not drawn) ?
GIV-Gai inh: 116

How did Cc1nn(-c2ccccc2)c2c1C(c1ccc(Cl)cc1)SCC(=O)N2 (stereo not drawn) do in these assays?
HCMV UL50-53 inh: -10; GIV-Gai inh: 96
